In one assay the target is human μ opiate receptor (Homo sapiens, UniProt P35372). Put plainly: μ opiate receptor binding assay with [3H]-naloxone (WGA-SPA beads). The following applies: for Ki: read-out: Ki (μ) mean [μm], mean; for % inhibition (μ) [1 μM]: test concentration 1 μM.
A further assay concerns the target ORL1 receptor (Homo sapiens, UniProt P41146). Put plainly: ORL1 receptor binding assay with 3H-nociceptin/orphanin FQ (WGA-SPA beads). The note with it: for Ki: read-out: Ki (ORL1) mean, mean; for % inhibition (ORL1) [1 μM]: test concentration 1 μM.

Chains of the proteins cited; added tags and fusions are not shown. Lines headed by an entry give the natural chain unless they say otherwise; changes in a name come on top.
UniProt P35372, whole entry, looked up: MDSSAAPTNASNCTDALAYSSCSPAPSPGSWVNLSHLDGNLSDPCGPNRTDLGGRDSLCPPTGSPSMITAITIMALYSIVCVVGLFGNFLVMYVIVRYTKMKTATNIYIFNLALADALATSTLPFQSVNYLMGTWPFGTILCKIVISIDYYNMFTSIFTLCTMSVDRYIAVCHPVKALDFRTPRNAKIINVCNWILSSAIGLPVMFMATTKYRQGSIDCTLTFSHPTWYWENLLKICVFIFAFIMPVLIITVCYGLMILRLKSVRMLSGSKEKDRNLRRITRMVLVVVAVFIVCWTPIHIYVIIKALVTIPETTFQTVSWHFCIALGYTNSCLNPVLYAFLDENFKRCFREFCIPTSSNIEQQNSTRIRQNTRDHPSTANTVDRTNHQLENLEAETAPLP
UniProt P41146: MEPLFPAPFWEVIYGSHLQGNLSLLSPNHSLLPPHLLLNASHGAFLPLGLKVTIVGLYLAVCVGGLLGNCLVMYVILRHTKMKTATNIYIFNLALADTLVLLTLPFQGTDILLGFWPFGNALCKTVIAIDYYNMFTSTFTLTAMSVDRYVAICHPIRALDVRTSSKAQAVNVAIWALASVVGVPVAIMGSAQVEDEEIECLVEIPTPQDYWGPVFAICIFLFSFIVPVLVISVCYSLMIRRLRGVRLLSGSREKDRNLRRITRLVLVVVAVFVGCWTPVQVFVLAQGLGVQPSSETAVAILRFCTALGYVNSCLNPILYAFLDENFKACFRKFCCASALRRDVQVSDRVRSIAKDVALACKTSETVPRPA

For the molecule `CC(CO)CN1CCC2(CCC(C3CCCC3)(N(C)C)CC2)C1` (stereo not drawn), on human μ opiate receptor, the Ki (commonly the equilibrium dissociation constant of an inhibitor or competing ligand from its target) was 49.5 nM and the “% inhibition (μ) [1 μM]” value is 90.5%. For the same molecule, on ORL1 receptor, the Ki is 71 nM and the “% inhibition (ORL1) [1 μM]” value turned out to be 66%.
Regarding `CC(C)C(=O)N1CCC2(CCC(c3cccs3)(N(C)C)CC2)C1` (stereo not drawn), at human μ opiate receptor, the Ki is 77 nM and the “% inhibition (μ) [1 μM]” value is on record as 85%. At ORL1 receptor, the Ki worked out at 102 nM and the “% inhibition (ORL1) [1 μM]” value was found to be 61%.
For `CNC1(c2ccccc2)CCC2(CCN(C(=O)CC3CC3)C2)CC1` (stereo not drawn) the same measures were 2.65 nM, 98.5%, 11.2 nM and 73.5%.
Consider `COCC(C)(C)C(=O)N1CCC2(CCC(c3cccs3)(N(C)C)CC2)C1` (stereo not drawn), for which, at human μ opiate receptor, the Ki came out at 1.65 nM and the “% inhibition (μ) [1 μM]” value came to 99%. On ORL1 receptor, the Ki came to 9.45 nM and the “% inhibition (ORL1) [1 μM]” value turned out to be 95.5%.
For `CN(C)C1(c2ccccc2)CCC2(CCN(C(=O)C3CCC3)C2)CC1` (stereo not drawn) the same measures were 3.2 nM, 99.5%, 2.1 nM and 94%.
For `COC(C)CCN1CC2(CCC(c3ccccc3)(N(C)C)CC2)CC1=O` (stereo not drawn) the same measures were 2.4 nM, 100%, 1.35 nM and 95%.
For `CN(C)C1(c2ccccc2)CCC2(CCN(CC3(C#N)CC3)C2)CC1` (stereo not drawn) the same measures were 31 nM, 93.5%, 47 nM and 82%.
Regarding `CN(C)C1(C2CCCC2)CCC2(CCN(CCC(C)(C)C#N)C2)CC1` (stereo not drawn), on human μ opiate receptor, the Ki is 4.65 nM and the “% inhibition (μ) [1 μM]” value stood at 97.5%. At ORL1 receptor, the Ki came out at 84 nM and the “% inhibition (ORL1) [1 μM]” value is on record as 63.5%.
For `CN(C)C1(c2ccccc2)CCC2(CC1)CC(=O)N(CC1(C#N)CCC1)C2` (stereo not drawn) the same measures were 1.55 nM, 100.5%, 0.61 nM and 98%.
Regarding `CC(C)CN1CC2(CCC(c3cccs3)(N(C)C)CC2)CC1=O` (stereo not drawn), at human μ opiate receptor, the Ki was 4.05 nM and the “% inhibition (μ) [1 μM]” value is 99.5%. Also, at ORL1 receptor, the Ki came to 6.5 nM and the “% inhibition (ORL1) [1 μM]” value was found to be 90%.
The matching figures for `CCCCC1(N(C)C)CCC2(CCN(C(=O)CC3CCOC3)C2)CC1` (stereo not drawn): 51 nM, 90%, 405 nM and 20.5%.
`CCCCN1CCC2(CCC(c3ccccc3)(N(C)C)CC2)C1` (stereo not drawn): at human μ opiate receptor, the Ki amounted to 6.5 nM and the “% inhibition (μ) [1 μM]” value amounted to 93%. Besides, at ORL1 receptor, the inhibitory constant (Ki) is 9.75 nM and the “% inhibition (ORL1) [1 μM]” value was determined as 80%.
Turning to `CNC1(c2ccccc2)CCC2(CC1)CC(=O)N(CCC1CCC1)C2` (stereo not drawn), at human μ opiate receptor, the Ki stood at 1.65 nM and the “% inhibition (μ) [1 μM]” value is given as 100%. On ORL1 receptor, the Ki worked out at 7.6 nM and the “% inhibition (ORL1) [1 μM]” value is given as 91%.
Take `CN(C)C1(c2cccs2)CCC2(CCN(CC3CCCC3)C2)CC1` (stereo not drawn): at human μ opiate receptor, the Ki was found to be 1.14 nM and the “% inhibition (μ) [1 μM]” value was found to be 98.5%. Also, on ORL1 receptor, the Ki came to 0.8 nM and the “% inhibition (ORL1) [1 μM]” value is given as 94%.
Consider `CN(C)C1(c2ccccc2)CCC2(CCN(CCC3CC3)C2)CC1` (stereo not drawn), for which, on human μ opiate receptor, the Ki came to 1.95 nM and the “% inhibition (μ) [1 μM]” value amounted to 98%. Moreover, at ORL1 receptor, the Ki turned out to be 1.5 nM and the “% inhibition (ORL1) [1 μM]” value amounted to 93%.
Regarding `CN(C)C1(c2ccccc2)CCC2(CCN(CC3CCOC3)C2)CC1` (stereo not drawn), on human μ opiate receptor, the Ki is 7.65 nM and the “% inhibition (μ) [1 μM]” value came out at 95.5%. At ORL1 receptor, the Ki came to 19.5 nM and the “% inhibition (ORL1) [1 μM]” value came to 92.5%.
For `CCOCCN1CC2(CCC(c3cccs3)(N(C)C)CC2)CC1=O` (stereo not drawn) the same measures were 4.15 nM, 99.5%, 3.45 nM and 92.5%.
As for `COCC1(C(=O)N2CCC3(CCC(c4ccc(Cl)s4)(N(C)C)CC3)C2)CCC1` (stereo not drawn), on human μ opiate receptor, the Ki is 5.25 nM and the “% inhibition (μ) [1 μM]” value stood at 98%. Further, on ORL1 receptor, the Ki was found to be 148 nM and the “% inhibition (ORL1) [1 μM]” value worked out at 48.5%.
The matching figures for `CN(C)C1(c2cccs2)CCC2(CCN(C(=O)CCC(C)(C)O)C2)CC1` (stereo not drawn): 3.05 nM, 99.5%, 16.5 nM and 89.5%.
On to `COC1(CCN2CCC3(CCC(C4CCCC4)(N(C)C)CC3)C2)CCC1` (stereo not drawn), for which, at human μ opiate receptor, the Ki was 2.8 nM and the “% inhibition (μ) [1 μM]” value is recorded as 98%. Also, at ORL1 receptor, the Ki was 13.6 nM and the “% inhibition (ORL1) [1 μM]” value came out at 89%.
For `CN(C)C1(c2cccs2)CCC2(CCN(CCC3COC3)C2)CC1` (stereo not drawn) the same measures were 6.35 nM, 98.5%, 18 nM and 89%.

(Values after patent US10202345B2, “Substituted azaspiro(4.5)decane derivatives” (priority 2014, dated 2019).)
